{"source": "PubChem BioAssay (NCI)", "assay_in_all_cases": "inhibition of tumour cell growth, NCI panel, 48 h", "key": {"T-47D breast": {"test_system": "T-47D breast"}, "MDA-MB-231 breast": {"test_system": "MDA-MB-231 breast"}, "HS 578T breast": {"test_system": "HS 578T breast"}, "EKVX NSCLC": {"test_system": "EKVX NSCLC"}, "ACHN renal": {"test_system": "ACHN renal"}, "SN12C renal": {"test_system": "SN12C renal"}, "OVCAR-8 ovarian": {"test_system": "OVCAR-8 ovarian"}, "M14 melanoma": {"test_system": "M14 melanoma"}, "KM12 colon": {"test_system": "KM12 colon"}, "MALME-3M melanoma": {"test_system": "MALME-3M melanoma"}, "OVCAR-5 ovarian": {"test_system": "OVCAR-5 ovarian"}, "HCT-116 colon": {"test_system": "HCT-116 colon"}, "SK-MEL-28 melanoma": {"test_system": "SK-MEL-28 melanoma"}, "RPMI-8226 leukemia": {"test_system": "RPMI-8226 leukemia"}, "NCI-H23 lung": {"test_system": "NCI-H23 lung"}, "CAKI-1 renal": {"test_system": "CAKI-1 renal"}, "SNB-75 CNS": {"test_system": "SNB-75 CNS"}, "IGROV1 ovarian": {"test_system": "IGROV1 ovarian"}, "K-562 leukemia": {"test_system": "K-562 leukemia"}, "LOX IMVI melanoma": {"test_system": "LOX IMVI melanoma"}, "NCI-H226 lung": {"test_system": "NCI-H226 lung"}, "HCC-2998 colon": {"test_system": "HCC-2998 colon"}, "SF-268 CNS": {"test_system": "SF-268 CNS"}, "OVCAR-3 ovarian": {"test_system": "OVCAR-3 ovarian"}, "SW-620 colon": {"test_system": "SW-620 colon"}, "HOP-92 NSCLC": {"test_system": "HOP-92 NSCLC"}, "MDA-MB-435": {"test_system": "MDA-MB-435"}, "COLO 205 colon": {"test_system": "COLO 205 colon"}, "DU-145 prostate": {"test_system": "DU-145 prostate"}}, "note": "Some of these compounds have results that are not shown, active ones among them.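 How tested: cells in 96-well plates exposed to compound for 48 hours at five concentrations. Here, GI50 denotes the concentration required for 50% inhibition of growth. TGI: concentration producing complete growth inhibition.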"}
{"smiles": "CCCC#CC(O)(C(=O)OC1CN2CCC1CC2)C1CCCC1", "note": "(configuration not stated)", "values": [{"measurement": "GI50", "setting": "T-47D breast", "result": "> 100", "unit": "µM"}, {"measurement": "TGI", "setting": "T-47D breast", "result": "> 100", "unit": "µM"}, {"measurement": "GI50", "setting": "MDA-MB-231 breast", "result": "> 100", "unit": "µM"}, {"measurement": "TGI", "setting": "MDA-MB-231 breast", "result": "> 100", "unit": "µM"}, {"measurement": "GI50", "setting": "HS 578T breast", "result": "> 100", "unit": "µM"}, {"measurement": "TGI", "setting": "HS 578T breast", "result": "> 100", "unit": "µM"}, {"measurement": "GI50", "setting": "EKVX NSCLC", "result": "> 100", "unit": "µM"}, {"measurement": "TGI", "setting": "EKVX NSCLC", "result": "> 100", "unit": "µM"}, {"measurement": "GI50", "setting": "ACHN renal", "result": "> 100", "unit": "µM"}, {"measurement": "TGI", "setting": "ACHN renal", "result": "> 100", "unit": "µM"}, {"measurement": "GI50", "setting": "SN12C renal", "result": "> 100", "unit": "µM"}, {"measurement": "TGI", "setting": "SN12C renal", "result": "> 100", "unit": "µM"}, {"measurement": "GI50", "setting": "OVCAR-8 ovarian", "result": "> 100", "unit": "µM"}, {"measurement": "TGI", "setting": "OVCAR-8 ovarian", "result": "> 100", "unit": "µM"}, {"measurement": "GI50", "setting": "M14 melanoma", "result": "> 100", "unit": "µM"}, {"measurement": "TGI", "setting": "M14 melanoma", "result": "> 100", "unit": "µM"}, {"measurement": "GI50", "setting": "KM12 colon", "result": "> 100", "unit": "µM"}, {"measurement": "TGI", "setting": "KM12 colon", "result": "> 100", "unit": "µM"}, {"measurement": "GI50", "setting": "MALME-3M melanoma", "result": "> 100", "unit": "µM"}, {"measurement": "TGI", "setting": "MALME-3M melanoma", "result": "> 100", "unit": "µM"}, {"measurement": "GI50", "setting": "OVCAR-5 ovarian", "result": "> 100", "unit": "µM"}, {"measurement": "TGI", "setting": "OVCAR-5 ovarian", "result": "> 100", "unit": "µM"}, {"measurement": "GI50", "setting": "HCT-116 colon", "result": "> 100", "unit": "µM"}, {"measurement": "TGI", "setting": "HCT-116 colon", "result": "> 100", "unit": "µM"}, {"measurement": "GI50", "setting": "SK-MEL-28 melanoma", "result": "> 100", "unit": "µM"}, {"measurement": "TGI", "setting": "SK-MEL-28 melanoma", "result": "> 100", "unit": "µM"}, {"measurement": "GI50", "setting": "RPMI-8226 leukemia", "result": "> 100", "unit": "µM"}, {"measurement": "TGI", "setting": "RPMI-8226 leukemia", "result": "> 100", "unit": "µM"}, {"measurement": "GI50", "setting": "NCI-H23 lung", "result": "> 100", "unit": "µM"}, {"measurement": "TGI", "setting": "NCI-H23 lung", "result": "> 100", "unit": "µM"}, {"measurement": "GI50", "setting": "CAKI-1 renal", "result": "> 100", "unit": "µM"}, {"measurement": "TGI", "setting": "CAKI-1 renal", "result": "> 100", "unit": "µM"}, {"measurement": "GI50", "setting": "SNB-75 CNS", "result": 93.8, "unit": "µM"}, {"measurement": "TGI", "setting": "SNB-75 CNS", "result": "> 100", "unit": "µM"}, {"measurement": "GI50", "setting": "IGROV1 ovarian", "result": "> 100", "unit": "µM"}, {"measurement": "TGI", "setting": "IGROV1 ovarian", "result": "> 100", "unit": "µM"}, {"measurement": "GI50", "setting": "K-562 leukemia", "result": "> 100", "unit": "µM"}, {"measurement": "TGI", "setting": "K-562 leukemia", "result": "> 100", "unit": "µM"}, {"measurement": "GI50", "setting": "LOX IMVI melanoma", "result": "> 100", "unit": "µM"}, {"measurement": "TGI", "setting": "LOX IMVI melanoma", "result": "> 100", "unit": "µM"}, {"measurement": "GI50", "setting": "NCI-H226 lung", "result": "> 100", "unit": "µM"}, {"measurement": "TGI", "setting": "NCI-H226 lung", "result": "> 100", "unit": "µM"}, {"measurement": "GI50", "setting": "HCC-2998 colon", "result": "> 100", "unit": "µM"}, {"measurement": "TGI", "setting": "HCC-2998 colon", "result": "> 100", "unit": "µM"}, {"measurement": "GI50", "setting": "SF-268 CNS", "result": "> 100", "unit": "µM"}, {"measurement": "TGI", "setting": "SF-268 CNS", "result": "> 100", "unit": "µM"}, {"measurement": "GI50", "setting": "OVCAR-3 ovarian", "result": "> 100", "unit": "µM"}, {"measurement": "TGI", "setting": "OVCAR-3 ovarian", "result": "> 100", "unit": "µM"}, {"measurement": "GI50", "setting": "SW-620 colon", "result": "> 100", "unit": "µM"}, {"measurement": "TGI", "setting": "SW-620 colon", "result": "> 100", "unit": "µM"}, {"measurement": "GI50", "setting": "HOP-92 NSCLC", "result": "> 100", "unit": "µM"}, {"measurement": "TGI", "setting": "HOP-92 NSCLC", "result": "> 100", "unit": "µM"}, {"measurement": "GI50", "setting": "MDA-MB-435", "result": "> 100", "unit": "µM"}, {"measurement": "TGI", "setting": "MDA-MB-435", "result": "> 100", "unit": "µM"}, {"measurement": "GI50", "setting": "COLO 205 colon", "result": "> 100", "unit": "µM"}, {"measurement": "TGI", "setting": "COLO 205 colon", "result": "> 100", "unit": "µM"}, {"measurement": "GI50", "setting": "DU-145 prostate", "result": "> 100", "unit": "µM"}]}
